Molecules are shown by their SMILES.

The chains behind the UniProt entries cited, without tags or fusion partners. Where a name states a change or a piece, a line headed by the entry shows the natural chain unless it says otherwise.
UniProt P41144: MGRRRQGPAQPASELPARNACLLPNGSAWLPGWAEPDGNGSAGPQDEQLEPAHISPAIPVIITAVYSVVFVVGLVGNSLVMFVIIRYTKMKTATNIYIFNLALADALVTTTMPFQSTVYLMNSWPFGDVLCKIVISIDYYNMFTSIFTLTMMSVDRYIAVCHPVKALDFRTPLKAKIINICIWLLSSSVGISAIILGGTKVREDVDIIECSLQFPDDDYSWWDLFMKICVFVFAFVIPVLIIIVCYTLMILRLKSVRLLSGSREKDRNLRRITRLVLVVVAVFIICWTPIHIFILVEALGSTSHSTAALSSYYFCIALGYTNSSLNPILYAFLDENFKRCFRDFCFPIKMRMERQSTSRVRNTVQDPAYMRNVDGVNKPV

Assay [1] deals with Kappa-type opioid receptor (Cavia porcellus) (UniProt P41144). Put plainly: Tested for percentage specific binding of compound at 25 nM against [3H]U-69593 on unwashed kappa-opioid receptor binding site.
Assay [2] has the same target. As to the kind of experiment: Tested for percentage specific binding of compound at 25 nM against [3H]U-69593 on kappa-opioid receptor binding site protected with 1 uM naloxone.
For assay [3] the target is unchanged. Put plainly: Tested for percentage specific binding of compound at 5 nM against [3H]U-69593 on washed kappa-opioid receptor binding site.
Assay [4] has the same target. As to the kind of experiment: Tested for percentage specific binding of compound at 50 nM against [3H]U-69,593 on unwashed kappa-opioid receptor binding site.
Assay [5] shares this target. As to the kind of experiment: Tested for percentage specific binding of compound at 50 nM against [3H]U-69593 on washed kappa-opioid receptor binding site.
The target is the same in assay [6]. Put plainly: Tested for percentage specific binding of compound at 50 nM against [3H]U-69593 on kappa-opioid receptor binding site protected with 1 uM naloxone.
For assay [7] the target is unchanged. Put plainly: Tested for percentage specific binding of compound at 5 nM against [3H]U-69593 on kappa-opioid receptor binding site protected with 1 uM naloxone.
The target is the same in assay [8]. Put plainly: Tested for percentage specific binding of compound at 25 nM against [3H]U-69593 on washed kappa-opioid receptor binding site.
Assay [9] shares this target. Put plainly: Tested for percentage specific binding of compound at 5 nM against [3H]U-69593 on unwashed kappa-opioid receptor binding site.
For assay [10] the target is unchanged. As to the kind of experiment: Tested for percentage specific binding of compound at 10 nM against [3H]U-69593 on kappa-opioid receptor binding site protected with 1 uM naloxone.
For assay [11] the target is unchanged. Put plainly: Tested for percentage specific binding of compound at 10 nM against [3H]U-69593 on washed kappa-opioid receptor binding site.
For assay [12] the target is unchanged. As to the kind of experiment: Tested for percentage specific binding of compound at 10 nM against [3H]U-69593 on unwashed kappa-opioid receptor binding site.
Assay [13] shares this target. Put plainly: Tested for percentage specific binding of compound at 2.5 nM against [3H]U-69,593 on unwashed kappa-opioid receptor binding site.
Assay [14] has the same target. As to the kind of experiment: Tested for percentage specific binding of compound at 2.5 nM against [3H]U-69593 on washed kappa-opioid receptor binding site.
The target is the same in assay [15]. As to the kind of experiment: Tested for percentage specific binding of compound at 2.5 nM against [3H]U-69593 on kappa-opioid receptor binding site protected with 1 uM naloxone.
Assay [16] shares this target. As to the kind of experiment: Tested for percentage specific binding of compound at 20 nM against [3H]U-69593 on kappa-opioid receptor binding site protected with 1 uM naloxone.
The target is the same in assay [17]. As to the kind of experiment: Tested for percentage specific binding of compound at 40 nM against [3H]U-69593 on washed kappa-opioid receptor binding site.
For assay [18] the target is unchanged. Put plainly: Tested for percentage specific binding of compound at 60 nM against [3H]U-69593 on kappa-opioid receptor binding site protected with 1 uM naloxone.
Assay [19] shares this target. As to the kind of experiment: Tested for percentage specific binding of compound at 40 nM against [3H]U-69593 on kappa-opioid receptor binding site protected with 1 uM naloxone.
The target is the same in assay [20]. As to the kind of experiment: Tested for percentage specific binding of compound at 20 nM against [3H]U-69,593 on unwashed kappa-opioid receptor binding site.
Assay [21] shares this target. As to the kind of experiment: Tested for percentage specific binding of compound at 60 nM against [3H]U-69593 on unwashed kappa-opioid receptor binding site.
For assay [22] the target is unchanged. As to the kind of experiment: Tested for percentage specific binding of compound at 40 nM against [3H]U-69,593 on unwashed kappa-opioid receptor binding site.
Assay [23] has the same target. Put plainly: Tested for percentage specific binding of compound at 60 nM against [3H]U-69593 on washed kappa-opioid receptor binding site.
The target is the same in assay [24]. Put plainly: Tested for percentage specific binding of compound at 20 nM against [3H]U-69593 on washed kappa-opioid receptor binding site.

In the case of `CN(C(=O)Cc1ccc(Cl)c(Cl)c1)[C@H](CN1CCCC1)c1ccc(N=C=S)cc1`, the Binding worked out at 46% in [1]; 56% in assay [2]; 70% in assay [3]; 11% in assay [4]; 15% in assay [5]; 27% in assay [6]. Besides, the figures for the Binding in assay [7], in [8] and in assay [9] were 86%, 50% and 76%, respectively.
`CN(C(=O)Cc1cc(Cl)c(Cl)cc1N=C=S)[C@H](CN1CCCC1)c1ccccc1`: the Binding in [1] came to 20%; in assay [2], 37%; in assay [4], 11%; in assay [10], 79%; in assay [5], 12%; in assay [11] it was 46%. Also, the Binding in assay [6] was determined as 34%; in [12], 54%; in assay [8], 21%.
In the case of `CN(C(=O)Cc1ccccc1)[C@H](CN1CCCC1)c1ccccc1`, the Binding in assay [10] is 91%; in assay [11], 89%.
Take `CN(C(=O)Cc1ccccc1N=C=S)[C@H](CN1CCCC1)c1ccccc1`: the Binding in assay [13] came out at 74%; in assay [3], 65%; in [10], 80%; in assay [14], 78%; in [11] it was 57%; in assay [7] it was 88%. The figures for the Binding in assay [15], in [12] and in [9] were 87%, 49% and 62%, respectively.
On to `CN(C(=O)Cc1ccc(N=C=S)cc1)[C@H](CN1CCCC1)c1ccccc1`, for which the Binding in assay [16] came out at 61%; in assay [17] it was 34%; in assay [18], 27%; in [19] it was 35%; in assay [20], 59%; in [21], 27%. The values for the Binding in assay [22], in assay [23] and in assay [24] were 28%, 21% and 53%, respectively.
Consider `CN(C(=O)Cc1cccc(N=C=S)c1)[C@H](CN1CCCC1)c1ccccc1`, for which the Binding in [16] worked out at 50%; in assay [3] it was 62%; in [10], 61%; in [11], 45%; in assay [20] it was 24%; in assay [7], 79%. In addition, the Binding stood at 43% in assay [12], 51% in assay [9] and 38% in [24].

For the origin of these results see ChEMBL document CHEMBL1127447, “Isothiocyanate-substituted kappa-selective opioid receptor ligands derived from N-methyl-N-[(1S)-1-phenyl-2-(1-pyrrolidinyl)ethyl] phenylacetamide” (1994).
